From US11708346B2, “Treatment and prevention of neuropathic pain with P2Y14 antagonists” (Saint Louis University, priority 2019, dated 2023) come the findings set out here.

The chains behind the UniProt entries cited, without tags or fusion partners. Where a name states a change or a piece, a line headed by the entry shows the natural chain unless it says otherwise.
UniProt P35348: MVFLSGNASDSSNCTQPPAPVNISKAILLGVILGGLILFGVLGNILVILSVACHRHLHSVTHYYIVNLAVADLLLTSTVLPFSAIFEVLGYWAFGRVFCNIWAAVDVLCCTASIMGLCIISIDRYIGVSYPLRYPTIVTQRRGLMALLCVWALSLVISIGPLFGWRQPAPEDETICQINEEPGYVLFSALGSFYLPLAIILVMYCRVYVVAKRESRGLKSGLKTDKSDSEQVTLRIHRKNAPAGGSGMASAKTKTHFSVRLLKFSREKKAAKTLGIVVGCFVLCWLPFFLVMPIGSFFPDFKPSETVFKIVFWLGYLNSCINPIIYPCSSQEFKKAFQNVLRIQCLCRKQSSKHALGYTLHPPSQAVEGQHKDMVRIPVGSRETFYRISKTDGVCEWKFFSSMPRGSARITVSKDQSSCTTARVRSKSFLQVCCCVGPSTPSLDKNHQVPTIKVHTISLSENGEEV
UniProt P47898, whole entry, species assumed: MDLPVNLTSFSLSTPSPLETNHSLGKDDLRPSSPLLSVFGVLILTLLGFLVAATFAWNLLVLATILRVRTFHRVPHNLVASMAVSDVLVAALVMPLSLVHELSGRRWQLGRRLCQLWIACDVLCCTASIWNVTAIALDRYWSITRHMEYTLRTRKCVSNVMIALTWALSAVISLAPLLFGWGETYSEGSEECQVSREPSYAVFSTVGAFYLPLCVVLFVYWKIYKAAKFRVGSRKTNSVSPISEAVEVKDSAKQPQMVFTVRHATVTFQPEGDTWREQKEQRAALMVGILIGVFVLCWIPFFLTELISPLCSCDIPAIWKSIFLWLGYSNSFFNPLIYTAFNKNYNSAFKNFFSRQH
UniProt P21728, whole entry: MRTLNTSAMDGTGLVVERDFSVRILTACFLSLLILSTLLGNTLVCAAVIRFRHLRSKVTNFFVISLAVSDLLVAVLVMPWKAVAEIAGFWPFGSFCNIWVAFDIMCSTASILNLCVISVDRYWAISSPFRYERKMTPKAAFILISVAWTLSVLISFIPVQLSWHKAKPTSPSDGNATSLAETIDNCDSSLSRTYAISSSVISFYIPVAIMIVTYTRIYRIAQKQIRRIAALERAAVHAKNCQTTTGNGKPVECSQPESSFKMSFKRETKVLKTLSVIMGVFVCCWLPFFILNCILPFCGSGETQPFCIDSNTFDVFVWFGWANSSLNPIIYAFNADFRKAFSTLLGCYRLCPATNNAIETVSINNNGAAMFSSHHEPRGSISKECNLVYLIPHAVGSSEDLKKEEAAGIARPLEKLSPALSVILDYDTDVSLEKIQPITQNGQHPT
UniProt P18825, whole entry: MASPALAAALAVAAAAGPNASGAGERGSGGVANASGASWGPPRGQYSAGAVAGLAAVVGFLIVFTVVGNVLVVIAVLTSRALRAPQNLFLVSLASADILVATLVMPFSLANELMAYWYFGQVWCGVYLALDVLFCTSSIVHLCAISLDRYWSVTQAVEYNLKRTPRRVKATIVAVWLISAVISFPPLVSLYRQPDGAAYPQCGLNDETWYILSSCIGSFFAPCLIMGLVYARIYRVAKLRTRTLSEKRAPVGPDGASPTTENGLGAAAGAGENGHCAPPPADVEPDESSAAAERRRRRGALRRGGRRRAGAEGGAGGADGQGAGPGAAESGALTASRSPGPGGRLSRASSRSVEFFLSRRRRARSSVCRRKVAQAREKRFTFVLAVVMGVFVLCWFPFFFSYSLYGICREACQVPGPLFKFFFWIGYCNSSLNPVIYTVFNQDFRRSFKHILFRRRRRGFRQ

The IC50 is the concentration needed to halve the response being measured. One may read the Ki as the dissociation constant of the complex between target and ligand, obtained from inhibition or displacement.

One assay deals with T1, mP2Y14R (Mus musculus, UniProt Q9ESG6).
T1 sequence (Q9ESG6 1-338): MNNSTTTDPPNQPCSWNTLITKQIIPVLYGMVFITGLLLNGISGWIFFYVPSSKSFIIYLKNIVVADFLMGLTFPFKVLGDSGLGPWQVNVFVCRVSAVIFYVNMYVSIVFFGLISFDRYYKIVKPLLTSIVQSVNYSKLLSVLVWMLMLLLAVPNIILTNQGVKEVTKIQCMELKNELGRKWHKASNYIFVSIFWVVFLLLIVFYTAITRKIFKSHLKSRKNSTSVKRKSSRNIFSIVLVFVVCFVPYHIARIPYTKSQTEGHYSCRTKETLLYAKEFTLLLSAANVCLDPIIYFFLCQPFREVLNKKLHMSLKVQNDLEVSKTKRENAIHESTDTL
Conditions: read-out: Mouse P2Y14R binding affinity (IC50).

Another assay addresses α1A (Homo sapiens, UniProt P35348). Conditions: read-out: Ki α1A; ± SEM.
The target of the next assay is 5HT5A (Homo sapiens, UniProt P47898). Conditions: read-out: Ki 5HT5A; ± SEM.
A further assay deals with D1 (Homo sapiens, UniProt P21728). The settings on record: read-out: Ki D1; ± SEM.
For a further assay, the target named is α2C (Homo sapiens, UniProt P18825). The assay is described as follows: PDSP off-target binding. The settings on record: ± SEM.

As to `O=C(O)c1cc(-c2ccc(C3CCNCC3)cc2)cc(-n2cc(-c3ccc(C(F)(F)F)cc3)nn2)c1` [Compound 6], the IC50 on mP2Y14R was 142 ± 58 nM.

With `CC(=O)N1CCC(c2ccc(-c3cc(C(=O)O)cc4cc(-c5ccc(C(F)(F)F)cc5)ccc34)cc2)CC1` [Compound 4, 4-(4-(1-(Acetyl)piperidin-4-yl)phenyl)-7-(4-(trifluoromethyl)phenyl)-2-naphthoic acid], the Ki at α1A is 3.14 µM; on 5HT5A it was 2340 ± 1250 nM; at D1 it was 1390 nM; at α2C, 4.31 µM.
